Measured values: patent publication US20260382583A1, “LPA1 ANTAGONISTS FOR TREATING INTERSTITIAL LUNG DISEASE” (published 2026)

Legend:
[1] = tested on: healthy Japanese participants; assay: Example 2 Part C: MAD study in healthy Japanese participants, blood pressure; conditions: 30, 60, 90 mg BID
Description: The study was performed in 3 parts in 112 healthy male and female participants, including 24 Japanese participants. Female participants were to be not of childbearing potential. The present study was designed to evaluate the safety and tolerability, PK, and exploratory PD of an oral suspension of Compound A. Parts A and B (Cohort B1 only) enrolled healthy participants and was conducted at a site in The Netherlands and Part B (Cohort B2 to B5) enrolled healthy non-Japanese participants and was conducted at a site in the United Kingdom (UK). Part C enrolled healthy Japanese participants and was conducted at the same site in the UK.
Part C was a MAD study in 3 sequential dose escalation cohorts (30 mg BID, 60 mg BID, and 90 mg BID) of 8 healthy Japanese participants (6 active+2 placebo) each. Eligible participants in Cohorts C1 to C3 received study drug (Compound A or placebo) administered orally for 14 days.
Physical examinations, vital sign measurements (including orthostasis testing in Cohort A6, Cohort B3 to B5, and C1 to C3 at selected time points), 12-lead electrocardiogram (ECG), and clinical laboratory evaluations were performed at selected times throughout the study. […] Participants were closely monitored for adverse events (AEs). […]

participants with PPF [2] = assay: Phase 2 PPF cohort: efficacy (FVC, ppFVC), 26 weeks
Description: (§1) A total of 123 participants with PPF were randomized. Participants (age ≥21 years) were randomized (1:1:1) to receive 30 mg or 60 mg Compound A or PBO twice daily for 26 weeks. […] Immunosuppressive medications (mycophenolate mofetil, mycophenolic acid, azathioprine and/or tacrolimus) were permitted only if dosing is stable for ≥6 months prior to screening. If receiving antifibrotic agents pirfenidone or nintedanib, patients had to receive a stable dosage for ≥3 months prior to screening and during the screening period; if not receiving pirfenidone or nintedanib, patients had to be naive to both drugs or not have received either 4 weeks prior to Day 1. A total of 47 (38.2%) subjects were receiving antifibrotic treatment (with or without immunosuppression therapy). Of those subjects, 34 were being treated with nintedanib and 13 with pirfenidone. Participants were stratified by usual interstitial pneumonia (UIP) pattern (presence versus absence) and background therapy (antifibrotics+/−ILD-targeted immunosuppression versus ILD-targeted immunosuppression alone versus none).UIP pattern was present in 52% of subjects and unclassifiable ILD was the most common disease categorization.
The study was not powered to detect statistical significance (no formal testing). No target effect size was defined in the study design. There were two estimand approaches for analysis:
Treatment Policy: Effect of treatment with dose reduction as part of treatment regimen.
While-On Treatment: Effect of treatment without dose reduction.
The main efficacy endpoint, rate of FVC decline (in % of predicted) from baseline to wk-26 in the PPF cohort, was estimated using a linear mixed-effects model utilizing all FVC timepoints. It was analyzed under a primary estimand (utilizing all data, treatment policy strategy), and under supplementary estimand (utilizing all data up to the point of dose reduction, while-on-treatment strategy). Analysis was performed in the overall population as well as in sub-groups by 1) background anti-fibrotic treatment or not 2) UIP radiographic pattern (presence or not). The mean baseline ppFVC was 66.7% for the PPF cohort.

participants with PPF [3] = assay: Phase 2 PPF cohort: safety and blood pressure monitoring
Description: as §1
Patient is experiencing any of the following, confirmed by retest within 15 minutes: • Seated systolic blood pressure <85 mmHg • Seated diastolic blood pressure <55 mmHg • Orthostatic hypotension
Patient is experiencing symptoms that, in the investigator's opinion, could be associated with a reduction in blood pressure and is also experiencing at least one of the following, confirmed by retest within 15 minutes: • Seated systolic blood pressure <100 mmHg or seated diastolic blood pressure <60 mmHg • Decrease of seated systolic blood pressure of ≥20 mmHg from the previous visit or decrease of seated diastolic blood pressure of ≥10 mmHg from the previous visit • Orthostatic hypotension • Orthostatic tachycardia

[4] = 60 mg BID, not receiving antifibrotic, primary estimand
[5] = 60 mg BID, not receiving antifibrotic, supplementary estimand

CCCN(C)C(=O)OCc1c(-c2ccc(O[C@H]3CCC[C@H](C(=O)O)C3)c(C)n2)nnn1C
BP reduction trend, Japanese MAD cohorts [1]: no clear Compound A dose-dependent BP reduction trend | Mean observed change in ppFVC and FVC vs placebo (participants with PPF [2]; 30 mg BID, after week 20): more significant improvement after week 20 | Difference in rate of decline in FVC (% predicted) vs placebo (participants with PPF [2]; 30 mg BID, not receiving antifibrotic, primary estimand): 1.28% | Rate of decline in FVC (% predicted), slope (participants with PPF [2]; 30 mg BID, not receiving antifibrotic, supplementary estimand): −2.83% | Rate of decline in FVC (% predicted), slope (participants with PPF [2]; 30 mg BID, receiving antifibrotic, supplementary estimand): −1.8% | Mean observed change in ppFVC and FVC vs placebo (participants with PPF [2]; 30 mg and 60 mg BID, week 8): both 30 mg and 60 mg show improvement over placebo at week 8 | Efficacy (participants with PPF [2]; 60 mg BID, 37% on background anti-fibrotics): Efficacy of Compound A (60 mg) was shown | Relative reduction in rate of decline in FVC (% predicted) (participants with PPF [2]; 60 mg BID, UIP absent, primary estimand): Policy Strategy (Relative Reduction = 83.6%) | Relative reduction in rate of decline in FVC (% predicted) (participants with PPF [2]; 60 mg BID, UIP absent, supplementary estimand): While on Treatment (Relative Reduction = 84.4%) | Difference in rate of decline in FVC (% predicted) vs placebo (participants with PPF [2]; [4]): 2.85% | Relative reduction in rate of decline in FVC (% predicted) (participants with PPF [2]; [4]): Estimand - Treatment Policy (Relative Reduction = 68.5%) | Rate of decline in FVC (% predicted), slope (participants with PPF [2]; [5]): −1.56% | Relative reduction in rate of decline in FVC (% predicted) (participants with PPF [2]; [5]): Estimand - While on Treatment (Relative Reduction = 62.6%) | Relative reduction in rate of decline in FVC (% predicted) (participants with PPF [2]; 60 mg BID, receiving antifibrotic, primary estimand): Estimand - Treatment Policy (Relative Reduction = 85%) | Relative reduction in rate of decline in FVC (% predicted) (participants with PPF [2]; 60 mg BID, receiving antifibrotic, supplementary estimand): Estimand - While on Treatment (Relative Reduction = 74.9%) | Mean observed change in ppFVC and FVC vs placebo (participants with PPF [2]; 60 mg BID, through week 26): maintains the improvement over placebo through the end of week 26 | Treatment difference 60 mg v placebo, rate of decline in ppFVC (participants with PPF [2]; Anti-fibrotic subgroup, Week 26, N 15/15): 3.28% | Treatment differences in rate of change in ppFVC by background antifibrotic use (participants with PPF [2]; FIGS. 11C and 11D): consistent with or without background antifibrotic use | Treatment differences by UIP pattern (participants with PPF [2]; FIGS. 14-16): treatment differences were seen in the PPF cohort independent of UIP pattern presence or absence | Treatment difference 60 mg v placebo, rate of decline in ppFVC (participants with PPF [2]; No antifibrotic subgroup, Week 26, N 27/26): 2.61% | Treatment difference 60 mg v placebo, rate of decline in ppFVC (participants with PPF [2]; Non UIP subgroup, Week 26, N 21/20): 3.80% | Dose response (participants with PPF [2]; PPF cohort): Clear dose response | Treatment difference 60 mg v placebo, rate of decline in ppFVC (participants with PPF [2]; UIP subgroup, Week 26, N 21/21): 2.12% | Efficacy in sub-groups (participants with PPF [2]; irrespective of background antifibrotics or UIP pattern): Efficacy consistent in all sub-groups | Treatment difference 60 mg v placebo, rate of decline in ppFVC (participants with PPF [2]; overall, baseline to Week 26, N 42/41): 2.94% | Orthostatic hypotension (asymptomatic and symptomatic) (participants with PPF [3]; 60 mg BID): higher in the 60 mg group than for other groups | Adverse event profile other than low blood pressure (participants with PPF [3]; 60 mg BID versus placebo): generally in favor of the 60 mg group versus placebo | Day 1 post-dose reductions in blood pressure (participants with PPF [3]; PPF cohort): without clinical consequences | Dose dependent BP findings (participants with PPF [3]; PPF cohort): Dose dependent BP findings reaffirm low BP safety risk with Compound A | Tolerability (participants with PPF [3]; PPF cohort): well-tolerated, demonstrated no unexpected safety findings | Prespecified blood pressure reduction criteria (participants with PPF [3]; across PPF cohort arms): increased in a dose-dependent manner across PPF cohort arms | Day 1 blood pressure reduction (participants with PPF [3]; similar in magnitude to IPF cohort): dose dependent day−1 blood pressure reduction
